# Yeast mating assay 1: variants of the scFv Ab-14

Binding partner: SARS-CoV-2 spike HR2 peptide, sequence PDVDLGDISGINAS.

Parent: Ab-14, a human scFv built as VH, a (GGGGS)3 linker, VL. Only the CDRs of the heavy chain vary.
VH: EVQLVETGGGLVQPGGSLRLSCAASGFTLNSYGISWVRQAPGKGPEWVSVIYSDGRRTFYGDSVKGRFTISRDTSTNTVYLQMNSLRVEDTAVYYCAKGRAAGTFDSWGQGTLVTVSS
VL: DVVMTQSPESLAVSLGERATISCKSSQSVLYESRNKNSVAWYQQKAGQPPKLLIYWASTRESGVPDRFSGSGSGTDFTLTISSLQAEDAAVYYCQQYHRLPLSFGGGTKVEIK

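In library AAYL49, one, two or three CDR residues were substituted; doubles and triples were drawn at random. The assay is AlphaSeq: two haploid yeast populations carry antibody and antigen on their surface. Mating (16 h, 30 °C) was followed by selection of diploids and sequencing of their barcodes. Read counts were normalised to the haploid input and turned into Kd by a linear fit to BCL2-family pairs of known affinity, for each replicate. The assay was run in three technical replicates.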

The parent's heavy chain CDRs are GFTLNSYGIS, VIYSDGRRTFYGDSVK, GRAAGTFDS; each variant's own CDRs replace them letter for letter.
All variants listed here change V50 of the VH, counted from its first residue.
Kd is apparent (estimated from mating counts) and averaged on the log scale over replicates with a signal. Smaller is tighter.
A pair that was not seen in any replicate is written "nd"; this usually means weak binding, but a binder can also be missed.
In this assay the parent's reference entry averaged 4.4 nM; its copy inside this library read 13 µM (one replicate of three).
Three control strains display no target. For library AAYL49, 15% of the pairings with them gave a signal, with a median of 11 µM and one signal in twenty below 680 nM, so weak values seen in few replicates may be background.

With GFTLNSYGIS | FIYSPGRRTFHGDSVK | GRAAGTFDS the result was nd (0 of 3 replicates). For GFTLNSYGIS | AIYSDGRRTFYGDSVK | GRAAGTFDS, the assay gave 6.6 µM (2 of 3 replicates). Variant GFTLNVYGIS | QIYADGRRTFYGDSVK | GRAAGTFDS showed 18 µM (2 of 3 replicates). With GFTLNSYGIS | KGYSDGRRTFYGDSVK | GRAAGTFDS the result was nd (0 of 3 replicates). Variant GFTLNSYGIS | MIYIDGRRTFYGDSVK | GRIAGTFDS gave 30 µM (2 of 3 replicates). Variant GFTTNSYGIS | EIYSDGRRTFYGDSVG | GRAAGTFDS gave 19 µM (2 of 3 replicates). Variant GFTLGSYGIS | RIYSDGRRTFYGDPVK | GRAAGTFDS showed 8.5 µM (1 of 3 replicates).

For GFTLNSYGIS | RIYSDGRRTQYGDSVK | GRAAVTFDS, the assay gave 350 µM (1 of 3 replicates). Variant GFTLNSYGIS | CIYSDGRRTMYGQSVK | GRAAGTFDS gave nd (0 of 3 replicates). For GFTLNSYGIS | NIYSDGRRTFYGDSHK | FRAAGTFDS, the assay gave nd (0 of 3 replicates). Variant GFTLNIYGIS | KIYSDGRRTEYGDSVK | GRAAGTFDS showed nd (0 of 3 replicates). Variant GFTLNSYGIS | NIYSDGRRTFGGDSVK | GRAAGDFDS showed 4.4 µM (1 of 3 replicates). With GFTLNSRGIS | NIYSDGRRTFYGDSVK | GRAAGTFDS the result was nd (0 of 3 replicates). Variant GFTLNSYGIS | WIYSDGRRTFYGDSVK | GRAAGTFDS showed nd (0 of 3 replicates).

Variant GFTLNSYDIS | AIYSDGRRTFYGDLVK | GRAAGTFDS gave 18 µM (1 of 3 replicates). With GFDLNSYGIS | PIYSDGRRTFYGDSVK | GRAAGTFHS the result was 34 µM (2 of 3 replicates). Variant GFTLNSYGIS | TIYSTGRRTFYGDSVK | HRAAGTFDS gave nd (0 of 3 replicates). Variant GFTLNSYGIS | QIYSDGRRTFYGDSDK | GRAAGTFDA gave 62 µM (2 of 3 replicates). For GFTLNSYGIK | KIDSDGRRTFYGDSVK | GRAAGTFDS, the assay gave nd (0 of 3 replicates). Variant GWTLNSYGIS | WIYSDGRRTFYGDSVK | GRAAGTFPS showed 170 µM (3 of 3 replicates). With GFTLNSYGIS | SIYSDGRQTFYGDSVK | GRAAGTFDP the result was 53 µM (2 of 3 replicates).

Variant GFTLNSYGIS | PIYSDGHRTFYGDSVK | GRAAGTFDS showed nd (0 of 3 replicates). Variant GFTLNSSGIS | IIYSDGRRTFYGDSVK | GPAAGTFDS gave 83 µM (3 of 3 replicates). Variant GFTLNSYGIS | QIYSDGWRTFYGDSVK | GRAAGYFDS showed nd (0 of 3 replicates). For GFTLNSYGIE | QIYSDGRRTFYGRSVK | GRAAGTFDS, the assay gave nd (0 of 3 replicates). With GFTLNSPGIS | YIYSDKRRTFYGDSVK | GRAAGTFDS the result was 6.1 µM (1 of 3 replicates). With GFTENSYGIS | PIYSDGRRFFYGDSVK | GRAAGTFDS the result was nd (0 of 3 replicates). Variant GFYLNSYGIS | CIPSDGRRTFYGDSVK | GRAAGTFDS gave 24 µM (2 of 3 replicates).

With GFTLNSYGIS | LIYSDGRLTFYGDSVK | GRQAGTFDS the result was nd (0 of 3 replicates). Variant GFTLNSYGIS | YIYSDGIRTFYGDSVK | GRAAGTFDS gave 210 µM (1 of 3 replicates). With GFTLNSYGIS | NIYSDGRQTFIGDSVK | GRAAGTFDS the result was nd (0 of 3 replicates). Variant GFTLNSYGHS | GIYSDGRRTFYGDSVK | GRAAGTFDS gave 19 µM (2 of 3 replicates). Variant GFTLNSYGIS | SIYSDGRRTYYGDSVK | GRAAGTFDS gave nd (0 of 3 replicates). Variant EFTLLSYGIS | HIYSDGRRTFYGDSVK | GRAAGTFDS gave 18 µM (1 of 3 replicates). For GVTLNSYGIS | QIYSDGRRTFYGDSVK | GRAAGTFYS, the assay gave 23 µM (2 of 3 replicates).

Variant GFTLCSPGIS | EIYSDGRRTFYGDSVK | GRAAGTFDS gave nd (0 of 3 replicates). Variant GFTLNSYGIS | SIYSDGRMTFYGDSVK | GRWAGTFDS showed nd (0 of 3 replicates). Variant GFTLVSYGIS | KIYSDGRRTFYGDLVK | GRAAGTFDS gave 420 µM (3 of 3 replicates). For GFTLNSYGIS | AIYSDGRRTFYGDSVK | GRAAYTFDS, the assay gave 46 µM (3 of 3 replicates).

Data: MIT Lincoln Laboratory AlphaSeq set, Engelhart et al. 2022, doi:10.1038/s41597-022-01779-4, as distributed in FLAb.